Reference: PMC4396990, “Targeting Vascular Endothelial Growth Factor Receptor 2 and Protein Kinase D1 Related Pathways by a Multiple Kinase Inhibitor in Angiogenesis and Inflammation Related Processes In Vitro” (PLoS ONE, 2015)

Molecular target: T1, PKD1 (Homo sapiens, UniProt Q15139)
T1 construct: gene PRKD1
T1 sequence (Q15139 1-912): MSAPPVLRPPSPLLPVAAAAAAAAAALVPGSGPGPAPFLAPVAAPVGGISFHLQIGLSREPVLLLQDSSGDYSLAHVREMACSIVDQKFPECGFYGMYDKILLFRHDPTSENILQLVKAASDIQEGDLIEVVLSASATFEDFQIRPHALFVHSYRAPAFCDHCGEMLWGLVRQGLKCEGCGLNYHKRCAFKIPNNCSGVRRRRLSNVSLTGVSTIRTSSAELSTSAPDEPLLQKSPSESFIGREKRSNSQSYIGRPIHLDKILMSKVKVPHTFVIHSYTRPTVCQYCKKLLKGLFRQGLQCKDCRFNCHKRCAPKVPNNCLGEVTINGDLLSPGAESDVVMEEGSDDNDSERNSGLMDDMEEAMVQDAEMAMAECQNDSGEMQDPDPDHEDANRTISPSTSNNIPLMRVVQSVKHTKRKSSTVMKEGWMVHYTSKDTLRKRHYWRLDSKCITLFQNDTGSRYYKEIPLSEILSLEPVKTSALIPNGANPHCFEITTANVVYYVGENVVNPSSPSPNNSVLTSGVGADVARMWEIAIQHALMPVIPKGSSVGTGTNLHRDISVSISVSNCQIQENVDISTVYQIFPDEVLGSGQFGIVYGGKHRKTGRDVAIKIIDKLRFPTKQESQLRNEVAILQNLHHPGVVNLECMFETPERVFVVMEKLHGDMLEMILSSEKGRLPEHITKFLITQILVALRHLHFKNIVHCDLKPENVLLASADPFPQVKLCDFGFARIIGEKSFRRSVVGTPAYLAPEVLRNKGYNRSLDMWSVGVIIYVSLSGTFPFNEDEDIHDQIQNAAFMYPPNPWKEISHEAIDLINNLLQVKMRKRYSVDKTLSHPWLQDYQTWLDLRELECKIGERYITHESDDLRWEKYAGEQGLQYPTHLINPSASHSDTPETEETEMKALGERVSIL
Assay: recombinant kinase assay (IMAP fluorescence polarization, TAMRA-peptide)
Format: biochemical

kb-NB142-70 [reference compound]
IC50: 26 nM
